# Assay results reported in patent US20060070135A1, “Compositions and methods for inhibiting the enzymatic activity of PTP-1B” (priority 1998, published 2006).
# Target: T1, human PTP-1B (PTP-1B-GST fusion protein) (Homo sapiens, UniProt P18031)
# T1 sequence (P18031 1-435): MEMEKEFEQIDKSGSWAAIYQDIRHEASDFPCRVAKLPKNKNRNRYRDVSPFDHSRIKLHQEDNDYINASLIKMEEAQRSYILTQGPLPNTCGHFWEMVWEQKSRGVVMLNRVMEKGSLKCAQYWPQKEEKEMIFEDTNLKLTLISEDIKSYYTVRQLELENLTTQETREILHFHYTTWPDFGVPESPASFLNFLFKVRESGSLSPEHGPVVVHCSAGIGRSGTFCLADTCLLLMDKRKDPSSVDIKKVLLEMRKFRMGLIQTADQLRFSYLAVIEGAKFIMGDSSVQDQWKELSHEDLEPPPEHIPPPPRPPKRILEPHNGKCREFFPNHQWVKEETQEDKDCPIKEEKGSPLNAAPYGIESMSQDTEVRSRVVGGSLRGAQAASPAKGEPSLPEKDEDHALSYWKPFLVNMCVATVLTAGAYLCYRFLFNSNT
# Experiment: biochemical
# Conditions: read-out: % inhibition in cell-free assay
compound,measurement,value
"O=C1Nc2ccc(S(=O)(=O)Nc3ccc(NS(=O)(=O)c4ccc5c6c(cccc46)C(=O)N5)c4ccccc34)c3cccc1c23 [compound 18, 1,4-bis-(2-oxo-1,2-dihydrobenzo[cd]indole-6-sulfonylamino)-naphthalene]",inhibition at 20 µM,94%
